Only a part is listed here, and it is no random draw. The source made the active and inactive calls.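 The calls were made as follows: active = corrected activity change at or below -50% at 5 µM; inactive = the rest.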

This test in a line: cytotoxicity in KKLEB CF airway cells, primary screen, cytotoxicity control for CF NF-kB inhibitor project, cell-based, uHTS, fluorescence assay plates (AID 602141). To be noted: KKLEB CF airway cells viability, ATPlite luminescence, overnight; at 5 µM; active compounds read low; cells stimulated with P. aeruginosa culture filtrate. In general terms: ATP-based viability assays read luminescence as a measure of living cells.
Consider `CN(C)C1(CNC(=O)c2cccc(C#N)c2)CCCCC1`, for which the activity change (cytotoxicity) was inactive: 8.9%.
With `c1ccc(CN2CCC(Nc3ccccc3)CC2)cc1`, the activity change (cytotoxicity) is inactive: 6.1%.
The result for `O=c1[nH]c2ccccc2n1C1CCN(C(c2ccccc2)c2nnnn2C2CCCC2)CC1` (stereo unspecified) reads inactive: 5.3%; that for `CCCN1CCC(Nc2cc(OC)cc(OC)c2)CC1`, inactive: 6.8%; that for `Cc1cc(N(CCCl)CCCl)ccc1C=O`, inactive: 10.4%.
The result for `CC(C)(C)n1nnnc1C(c1cccc2ccccc12)N1CCC(n2c(=O)[nH]c3ccccc32)CC1` (stereo unspecified) reads inactive: -5.3%.
Consider `N#Cc1ccc(C(=O)NCC2(N3CCCCC3)CCCCC2)cc1`, for which the activity change (cytotoxicity) was inactive: 5.4%.
For `CC(C)(C)OC(=O)N1CCC(N(C(=O)c2ccccc2)c2ccc(Cl)cc2)CC1` the value was inactive: -0.2%; for `COc1cccc(C(c2nnnn2C(C)(C)C)N2CCC(n3c(=O)[nH]c4ccccc43)CC2)c1OC` (stereo unspecified), inactive: 5.3%.
For `CCOC(=O)N1CCC(Nc2ccc(C)cc2)CC1`, the activity change (cytotoxicity) was inactive: 0.1%.
For `N/C(=N\O)c1c(N)no[n+]1[O-]` the value was inactive: -1.4%; for `O=C(OC1CN2CCC1CC2)C1c2ccccc2C=Cc2ccccc21` (stereo unspecified), inactive: -0.5%; for `O=c1[nH]c2ccccc2n1C1CCN(C(c2cccs2)c2nnnn2C2CCCC2)CC1` (stereo unspecified), inactive: -24.9%.
Consider `CCCCn1nnnc1C(c1cccc(OC)c1OC)N1CCC(n2c(=O)[nH]c3ccccc32)CC1` (stereo unspecified), for which the activity change (cytotoxicity) was inactive: 0.6%.
As for `CCCCn1nnnc1C(c1ccccc1)N1CCC(n2c(=O)[nH]c3ccccc32)CC1` (stereo unspecified), the activity change (cytotoxicity) was inactive: -3.9%.
Consider `COc1cc(C(=O)NCC2(N3CCOCC3)CCCCC2)cc(OC)c1C`, for which the activity change (cytotoxicity) was inactive: -4.3%.
The result for `O=C(NCC1(N2CCOCC2)CCCCC1)c1cc(Br)ccc1Cl` reads inactive: 9.3%.
The result for `O=c1[nH]c2ccccc2n1C1CCN(C(c2cccs2)c2nnnn2C2CCCCC2)CC1` (stereo unspecified) reads inactive: -24.2%.
With `COc1ccc(C(=O)NCC2(N3CCOCC3)CCCCC2)cc1OC`, the activity change (cytotoxicity) is inactive: 6.8%.
The result for `O=c1[nH]c2ccccc2n1C1CCN(C(c2ccnc3ccccc23)c2nnnn2C2CCCC2)CC1` (stereo unspecified) reads inactive: 19.2%.
The result for `COc1cccc(C(c2nnnn2C2CCCC2)N2CCC(n3c(=O)[nH]c4ccccc43)CC2)c1OC` (stereo unspecified) reads inactive: -4.8%; that for `COc1cc(OC)cc(C(=O)NCC2(N3CCOCC3)CCCCC2)c1`, inactive: 6.6%.
For `COc1cccc(C(=O)N(c2cc(C)cc(C)c2)C2CCN(C(=O)OC(C)(C)C)CC2)c1` the value was inactive: 5%; for `CCC(CO)(C(=O)OC1CN2CCC1CC2)c1ccccc1` (stereo unspecified), inactive: -0.2%.
On to `CN1CCC(Nc2ccc(Cl)cc2)CC1`, for which the activity change (cytotoxicity) is inactive: 12.1%.
For `CCOc1ncccc1C(=O)NCC1(N2CCOCC2)CCCCC1` the value was inactive: -2.8%; for `CN1CCC(Nc2ccc(F)c(Cl)c2)CC1`, inactive: 7.3%.
As for `CC(C)(C)OC(=O)N1CCC(Nc2ccccc2)CC1`, the activity change (cytotoxicity) is inactive: 4.4%.
The result for `O=C(O)C1(Nc2ccccc2)CCN(Cc2ccccc2)CC1` reads inactive: 4%; that for `CCCOc1ccc(C(=O)NCC2(N(C)C)CCCCC2)cc1`, inactive: 9.9%.
For `O=c1[nH]c2ccccc2n1C1CCN(C(c2cc3ccccc3o2)c2nnnn2C2CCCC2)CC1` (stereo unspecified) the value was inactive: -5.9%.
For `Cc1ccccc1NC1(C#N)CCN(Cc2ccccc2)CC1` the value was inactive: -7.3%; for `CC(C)(C)n1nnnc1C(c1ccnc2ccccc12)N1CCC(n2c(=O)[nH]c3ccccc32)CC1` (stereo unspecified), inactive: -0.4%.
Consider `COc1ccc(C(c2nnnn2C2CCCCC2)N2CCC(n3c(=O)[nH]c4ccccc43)CC2)cc1` (stereo unspecified), for which the activity change (cytotoxicity) was inactive: -8.9%.
For `CCN1CCC(Nc2cccc(F)c2)CC1` the value was inactive: 6.4%; for `O=C(NCC1(N2CCCCC2)CCCCC1)c1ccco1`, inactive: 2.3%.
For the compound `Cn1c(=O)[nH]cc(N(CCCl)CCCl)c1=O`, the activity change (cytotoxicity) was inactive: 14.4%.
For `CN(C)c1ccc(C(=O)NCC2(N3CCCCC3)CCCCC2)cc1` the value was inactive: -0.7%; for `CC(=O)N(c1ccccc1)C1CCNCC1`, inactive: 19.3%; for `COc1cccc(C(c2nnnn2C2CCCCC2)N2CCC(n3c(=O)[nH]c4ccccc43)CC2)c1OC` (stereo unspecified), inactive: 8.6%.
For `CCC(c1nnnn1C1CCCCC1)N1CCC(n2c(=O)[nH]c3ccccc32)CC1` (stereo unspecified) the value was inactive: -0.1%.
The result for `O=c1[nH]c2ccccc2n1C1CCN(C(c2ccnc3ccccc23)c2nnnn2C2CCCCC2)CC1` (stereo unspecified) reads inactive: -8.7%; that for `COc1cc(OC)cc(C(=O)NCC2(N3CCCCC3)CCCCC2)c1`, inactive: -6.1%.
On to `Cc1ccc(C(=O)NCC2(N3CCCCC3)CCCCC2)o1`, for which the activity change (cytotoxicity) was inactive: -11.6%.
For `Fc1ccccc1NC1CCN(Cc2ccccc2)CC1` the value was inactive: 3.6%; for `Cc1ccc(NC2(C#N)CCN(Cc3ccccc3)CC2)cc1`, inactive: -0.9%.

Values taken from PubChem BioAssay AID602141 (Sanford-Burnham Center for Chemical Genomics, 2011).
